Test system: Plasma
Assay: Metabolic stability in human plasma at 2 uM after 24 hrs by LC-MS/MS analysis
Assay type: ADME, cell-free

- Stability: Stable
Compound: O=C(CSc1nc2c(c(=O)n1-c1ccccc1)SCC2)Nc1ccc(-c2ccccc2)cn1

From ChEMBL document CHEMBL2321875, “The development of highly potent inhibitors for porcupine” (J Med Chem, 2013)
